Antibody variant affinities, Ab-14 heavy chain, assay B

Values reported by Li et al. 2023, doi:10.1038/s41467-023-39022-2 (FLAb copy).

Target peptide (SARS-CoV-2 spike, HR2 region): PDVDLGDISGINAS

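The starting antibody came from a phage panning campaign against this peptide. This is the validation round: designs drawn from the data on random variants, tested in the same kind of assay. Several design methods are mixed in this list. The assay is AlphaSeq: two haploid yeast populations carry antibody and antigen on their surface. The frequency of each diploid, read from paired DNA barcodes, reflects how well the two displayed proteins bind. Read counts were normalised to the haploid input and turned into Kd by a linear fit to BCL2-family pairs of known affinity, for each replicate. Mating was done six times.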

The variants keep the light chain, the linker and the frameworks of Ab-14 (scFv order VH, a (GGGGS)3 linker, VL).
VH: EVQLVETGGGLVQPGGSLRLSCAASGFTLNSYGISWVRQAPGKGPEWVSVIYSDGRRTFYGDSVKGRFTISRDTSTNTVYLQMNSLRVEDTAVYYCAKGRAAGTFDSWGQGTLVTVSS
VL: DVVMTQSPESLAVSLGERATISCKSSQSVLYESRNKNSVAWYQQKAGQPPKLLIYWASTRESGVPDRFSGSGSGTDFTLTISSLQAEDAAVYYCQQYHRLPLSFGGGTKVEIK

Each variant is given by its three heavy chain CDRs, as the data file delimits them; those of the parent are GFTLNSYGIS, VIYSDGRRTFYGDSVK, GRAAGTFDS.
This list holds designs with more than six substitutions.
Kd is apparent (estimated from mating counts) and averaged on the log scale over replicates with a signal. Smaller is tighter.
A pair that was not seen in any replicate is written "nd"; this usually means weak binding, but a binder can also be missed.
The authors' rule: three or more of the six replicates give a measured affinity, fewer mean a poor binder.
Nonspecific signal, from three strains lacking the peptide, appeared in 1% of pairings of all heavy chain designs, centred on 120 nM (5% of these signals below 7.0 nM); values are not corrected for it. For each scFv, signals with the empty controls are counted beside the result.
The range of this assay differs from that of the first round, and the authors advise against merging the two.

With GFDLNEYGIS | VIYADGMRTAYVDSVK | GNTAGTFDV the result was 530 pM (6 of 6 replicates; controls 0 of 18). With GFDLDEYGIS | VIYADGMRTAYTDSVK | GQVAGTFDV the result was 120 pM (6 of 6 replicates; controls 0 of 18). With GKDIEEYGIS | VIYADGMRQAYADSVK | GNVVGSGSF the result was nd (0 of 6 replicates; controls 0 of 18). With GFDINEYGIS | VIYADGMRSYYDGKVK | GSNGDLLEV the result was nd (0 of 6 replicates; controls 0 of 18). With GFDLEKYGIS | VIYADGYRSAYAQNVK | GGHAGGFHV the result was nd (0 of 6 replicates; controls 1 of 18). For GFDVDEYGIS | VIYADGSRVAILESVK | GKIAGTFFV, the assay gave nd (0 of 6 replicates; controls 0 of 18). The variant GFDLDEYGIS | VIYADGRRTFYQDSVK | GEVAGTFDV gave 600 pM (6 of 6 replicates; controls 0 of 18).

With GFTLHSYGIS | VIYSDGRRTDYNDSVK | ERAAGKALS the result was nd (0 of 6 replicates; controls 0 of 18). For GKDIEEYGIS | VIYADGMRQAYADSVK | GQVVGSGKF, the assay gave nd (0 of 6 replicates; controls 0 of 18). The variant GMSLGEYGIS | VIYADGERTNYVSNFK | GVHAGTFDL gave nd (0 of 6 replicates; controls 0 of 18). For GFDIDEFGIS | VIYADGSRQVYQDNVK | GVGTGTFTD, the assay gave nd (0 of 6 replicates; controls 0 of 18). For GFDLNEYGIS | VIYADGKRTSYADSVK | GQLAGTFDQ, the assay gave 210 pM (6 of 6 replicates; controls 1 of 18). For GFNLDEYGIS | VIYADGVRTAYSSKVK | GKVWWFFLM, the assay gave nd (0 of 6 replicates; controls 0 of 18). The variant GFDLNEYGIS | VIYADGRRTAYADSVK | GSNAGTFDL gave 470 pM (6 of 6 replicates; controls 0 of 18).

The variant GFDLDEYGIS | VIYADGRRTAYSDSVK | GNEAGTFDV showed 340 pM (3 of 6 replicates; controls 0 of 18). With GPNLEEYGIS | VIYADGIRTAYKDSVK | GDVAGIGKF the result was 4.0 nM (6 of 6 replicates; controls 1 of 18). For GFDLNEYGIS | VIYADGVRTAYADSVK | GQNAGTFDQ, the assay gave 57 pM (5 of 6 replicates; controls 0 of 18). With GENLDEYGIS | VIYADGVREAYANKVK | GEQGSFFIT the result was nd (0 of 6 replicates; controls 0 of 18). For GFTLDEYGIS | VIYADGVRNEYADNVK | GNKVLYNMD, the assay gave nd (0 of 6 replicates; controls 0 of 18). For GFNLEEFGIS | VIYADGKRSSVSDSVK | GQLGNAFDL, the assay gave 820 nM (1 of 6 replicates; controls 0 of 18). For GFNLGEYGIS | VIYADGRRTFYKNSVK | GEFIVMGVD, the assay gave nd (0 of 6 replicates; controls 0 of 18).

The variant GFDLNEYGIS | VIYADGRRTAYADSVK | GNAAGTFDV gave 240 pM (6 of 6 replicates; controls 0 of 18). The variant GFGLAEYGIS | VIYADGIRKSYANKVK | GRLSGTVIM gave nd (0 of 6 replicates; controls 0 of 18). The variant GESLNEYGIS | VIYADGQRVKYSNNVK | GLHAGDFDM gave nd (0 of 6 replicates; controls 1 of 18). The variant GFDLNEYGIS | VIYADGKRTAYVDSVK | GNTAGTFDI showed 1.5 nM (6 of 6 replicates; controls 1 of 18). For GFDLDEYGIS | VIYADGKRTAYADSVK | GNEAGTFDL, the assay gave 630 pM (6 of 6 replicates; controls 0 of 18). For GDNINEYGIS | VIYADGLRRQYAENVK | GYLAGTLDE, the assay gave 170 nM (4 of 6 replicates; controls 1 of 18). For GFDLNEYGIS | VIYADGRRTFYIDSVK | GEVAGTFDA, the assay gave 730 pM (6 of 6 replicates; controls 1 of 18).

The variant GFDLNEYGIS | VIYADGMRTAYADNVK | GTVAGTFDQ gave 290 pM (6 of 6 replicates; controls 0 of 18). For GFDLNEYGIS | VIYADGRRTAYADSVK | GNNAGTFDV, the assay gave 600 pM (6 of 6 replicates; controls 0 of 18). The variant GFDLNEYGIS | VIYADGRRTFYSDSVK | GETAGFFDE gave nd (0 of 6 replicates; controls 0 of 18). The variant GFDLDEYGIS | VIYADGMRKVYADSVK | GNVAGTFDV gave 190 pM (6 of 6 replicates; controls 0 of 18). With GFSLDEVGIS | VIYADGRRAFYSDNVK | GENNVVFNE the result was nd (0 of 6 replicates; controls 0 of 18). For GFNLNEYGIS | VIYADGRRSFYSDSVK | GEHAGTFDV, the assay gave 260 pM (6 of 6 replicates; controls 0 of 18).

5 of these entries, quoted again:

| CDR-H1 | CDR-H2 | CDR-H3 | Kd | seen in | signal with controls |
|---|---|---|---|---|---|
| GMSLGEYGIS | VIYADGERTNYVSNFK | GVHAGTFDL | nd | 0 of 6 | 0 of 18 |
| GKDIEEYGIS | VIYADGMRQAYADSVK | GNVVGSGSF | nd | 0 of 6 | 0 of 18 |
| GFDLNEYGIS | VIYADGRRTAYADSVK | GSNAGTFDL | 470 pM | 6 of 6 | 0 of 18 |
| GFDLDEYGIS | VIYADGRRTAYSDSVK | GNEAGTFDV | 340 pM | 3 of 6 | 0 of 18 |
| GFDLDEYGIS | VIYADGMRTAYTDSVK | GQVAGTFDV | 120 pM | 6 of 6 | 0 of 18 |